Tests used:
[1] = biological target: GSPT1 (Homo sapiens, UniProt P15170+Q96SW2); test: Western blot assay of substrate protein degradation in hPBMCs; conditions: 24 hours treatment, compounds at 50 nM and 500 nM (concentration behind the class not stated)
[2] = biological target: IKZF3 (Homo sapiens, UniProt Q96SW2+Q9UKT9); test: as above; conditions: 24 hours treatment, compounds at 50 nM and 500 nM (concentration behind the class not stated)
[3] = biological target: CK1α (Homo sapiens, UniProt P48729+Q96SW2); test: as above; conditions: 24 hours treatment, compounds at 50 nM and 500 nM (concentration behind the class not stated)
[4] = biological target: IKZF2 (Homo sapiens, UniProt Q96SW2+Q9UKS7); test: as above; conditions: 24 hours treatment, compounds at 50 nM and 500 nM (concentration behind the class not stated)
[5] = biological target: WEE1 (Homo sapiens, UniProt P30291+Q96SW2); test: as above; conditions: 24 hours treatment, compounds at 50 nM and 500 nM (concentration behind the class not stated)
[6] = biological target: IKZF1 (Homo sapiens, UniProt Q13422+Q96SW2); test: as above; conditions: 24 hours treatment, compounds at 50 nM and 500 nM (concentration behind the class not stated)
[7] = biological target: CRBN (Homo sapiens, UniProt Q96SW2); test: CRBN binding affinity by HTRF (CEREBLON BINDING kit); conditions: for Inhibition Rate at 0.5 µM (%) / Inhibition Rate at 2 µM (%): CRBN binding, HTRF; for Inhibition Rate at 0.5 µM (%): compound at 0.5 µM; for Inhibition Rate at 2 µM (%): compound at 2 µM

By UniProt entry, the sequences of proteins in these tests, tags left out.
UniProt P15170, whole entry: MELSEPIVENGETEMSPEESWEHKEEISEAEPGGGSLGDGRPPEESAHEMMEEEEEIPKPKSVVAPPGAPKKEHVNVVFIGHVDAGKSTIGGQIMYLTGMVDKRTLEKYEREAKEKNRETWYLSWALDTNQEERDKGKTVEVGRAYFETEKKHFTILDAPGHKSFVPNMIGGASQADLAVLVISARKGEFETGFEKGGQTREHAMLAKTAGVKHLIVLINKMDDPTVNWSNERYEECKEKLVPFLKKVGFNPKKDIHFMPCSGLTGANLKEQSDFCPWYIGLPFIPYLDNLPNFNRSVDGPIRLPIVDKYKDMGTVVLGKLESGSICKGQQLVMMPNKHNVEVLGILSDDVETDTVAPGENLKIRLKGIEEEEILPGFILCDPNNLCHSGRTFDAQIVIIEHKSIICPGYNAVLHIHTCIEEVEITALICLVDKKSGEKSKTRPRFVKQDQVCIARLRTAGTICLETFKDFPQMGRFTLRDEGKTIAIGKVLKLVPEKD
UniProt Q96SW2, whole entry: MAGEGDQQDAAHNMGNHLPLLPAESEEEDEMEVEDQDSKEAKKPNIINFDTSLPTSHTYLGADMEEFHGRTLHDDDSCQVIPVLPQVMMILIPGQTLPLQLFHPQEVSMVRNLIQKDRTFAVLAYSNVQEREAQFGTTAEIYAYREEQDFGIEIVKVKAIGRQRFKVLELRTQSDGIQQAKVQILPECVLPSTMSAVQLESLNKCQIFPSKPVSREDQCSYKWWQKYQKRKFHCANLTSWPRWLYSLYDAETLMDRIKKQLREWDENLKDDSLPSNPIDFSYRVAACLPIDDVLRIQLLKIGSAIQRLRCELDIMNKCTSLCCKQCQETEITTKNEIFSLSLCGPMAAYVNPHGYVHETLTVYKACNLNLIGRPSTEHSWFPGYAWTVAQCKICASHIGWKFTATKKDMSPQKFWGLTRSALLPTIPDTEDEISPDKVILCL
UniProt Q9UKT9, whole entry: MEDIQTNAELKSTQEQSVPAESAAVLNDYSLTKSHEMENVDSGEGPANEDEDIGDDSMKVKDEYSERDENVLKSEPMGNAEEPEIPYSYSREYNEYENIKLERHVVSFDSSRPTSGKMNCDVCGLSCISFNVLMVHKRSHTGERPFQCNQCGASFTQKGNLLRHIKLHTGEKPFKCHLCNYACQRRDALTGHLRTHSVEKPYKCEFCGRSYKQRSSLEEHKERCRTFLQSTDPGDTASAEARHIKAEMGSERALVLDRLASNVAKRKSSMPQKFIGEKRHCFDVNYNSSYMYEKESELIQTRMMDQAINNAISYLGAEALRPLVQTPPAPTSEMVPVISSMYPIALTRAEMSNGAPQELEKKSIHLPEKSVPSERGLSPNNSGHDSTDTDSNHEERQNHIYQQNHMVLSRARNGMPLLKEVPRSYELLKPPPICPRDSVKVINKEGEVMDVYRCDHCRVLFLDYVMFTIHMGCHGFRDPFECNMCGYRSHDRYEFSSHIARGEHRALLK
UniProt P48729, whole entry: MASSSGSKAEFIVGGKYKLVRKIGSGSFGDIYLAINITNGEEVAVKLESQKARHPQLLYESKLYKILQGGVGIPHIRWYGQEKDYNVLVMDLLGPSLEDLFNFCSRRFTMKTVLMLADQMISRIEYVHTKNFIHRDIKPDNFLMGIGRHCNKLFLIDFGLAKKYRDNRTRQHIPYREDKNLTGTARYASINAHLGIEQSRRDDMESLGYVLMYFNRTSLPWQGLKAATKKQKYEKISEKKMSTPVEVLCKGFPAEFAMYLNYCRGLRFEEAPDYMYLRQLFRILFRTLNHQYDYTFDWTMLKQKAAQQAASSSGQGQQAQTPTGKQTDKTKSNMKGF
UniProt Q9UKS7, whole entry: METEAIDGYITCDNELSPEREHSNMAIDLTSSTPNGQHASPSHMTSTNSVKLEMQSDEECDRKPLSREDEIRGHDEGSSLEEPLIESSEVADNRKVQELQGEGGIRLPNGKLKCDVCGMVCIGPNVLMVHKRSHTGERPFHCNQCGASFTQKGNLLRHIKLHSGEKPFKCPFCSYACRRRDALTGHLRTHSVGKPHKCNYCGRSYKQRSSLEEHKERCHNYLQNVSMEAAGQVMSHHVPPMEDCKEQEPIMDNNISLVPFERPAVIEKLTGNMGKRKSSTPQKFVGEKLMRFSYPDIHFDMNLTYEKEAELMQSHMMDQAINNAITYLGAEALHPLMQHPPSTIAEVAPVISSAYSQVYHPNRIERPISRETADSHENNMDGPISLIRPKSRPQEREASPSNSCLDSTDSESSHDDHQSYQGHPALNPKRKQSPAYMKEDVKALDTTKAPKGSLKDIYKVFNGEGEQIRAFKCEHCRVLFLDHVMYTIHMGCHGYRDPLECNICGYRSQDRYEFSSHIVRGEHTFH
UniProt P30291, whole entry: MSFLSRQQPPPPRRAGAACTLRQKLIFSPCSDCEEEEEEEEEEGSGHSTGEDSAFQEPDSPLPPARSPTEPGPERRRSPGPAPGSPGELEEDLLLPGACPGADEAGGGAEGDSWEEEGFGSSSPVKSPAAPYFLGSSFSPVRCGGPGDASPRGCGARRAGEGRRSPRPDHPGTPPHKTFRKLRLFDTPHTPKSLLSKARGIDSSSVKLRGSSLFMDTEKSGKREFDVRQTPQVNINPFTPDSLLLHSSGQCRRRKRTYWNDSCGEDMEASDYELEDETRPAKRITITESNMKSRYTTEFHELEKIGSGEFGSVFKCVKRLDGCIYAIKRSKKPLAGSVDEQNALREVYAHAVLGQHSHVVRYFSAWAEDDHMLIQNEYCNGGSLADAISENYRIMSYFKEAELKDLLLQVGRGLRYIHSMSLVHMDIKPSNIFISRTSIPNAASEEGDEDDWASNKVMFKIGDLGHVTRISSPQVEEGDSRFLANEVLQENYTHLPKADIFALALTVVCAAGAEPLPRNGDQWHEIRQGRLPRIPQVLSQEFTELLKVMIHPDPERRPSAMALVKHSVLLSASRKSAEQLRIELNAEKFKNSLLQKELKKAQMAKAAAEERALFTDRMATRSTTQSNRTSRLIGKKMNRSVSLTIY
UniProt Q13422, whole entry: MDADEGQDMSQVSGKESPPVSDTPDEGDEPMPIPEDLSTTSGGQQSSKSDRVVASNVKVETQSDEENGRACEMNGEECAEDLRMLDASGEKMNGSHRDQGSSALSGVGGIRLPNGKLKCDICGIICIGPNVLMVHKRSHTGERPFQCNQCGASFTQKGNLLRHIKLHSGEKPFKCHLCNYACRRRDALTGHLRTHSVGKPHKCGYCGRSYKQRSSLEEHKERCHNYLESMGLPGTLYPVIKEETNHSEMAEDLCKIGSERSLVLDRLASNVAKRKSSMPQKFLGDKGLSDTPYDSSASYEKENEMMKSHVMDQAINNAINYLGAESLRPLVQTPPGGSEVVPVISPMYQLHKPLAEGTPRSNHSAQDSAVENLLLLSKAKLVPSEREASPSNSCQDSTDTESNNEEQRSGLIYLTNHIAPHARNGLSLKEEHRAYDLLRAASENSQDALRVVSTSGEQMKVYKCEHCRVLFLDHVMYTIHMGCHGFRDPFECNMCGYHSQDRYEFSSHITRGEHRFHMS
UniProt Q16531, whole entry partner: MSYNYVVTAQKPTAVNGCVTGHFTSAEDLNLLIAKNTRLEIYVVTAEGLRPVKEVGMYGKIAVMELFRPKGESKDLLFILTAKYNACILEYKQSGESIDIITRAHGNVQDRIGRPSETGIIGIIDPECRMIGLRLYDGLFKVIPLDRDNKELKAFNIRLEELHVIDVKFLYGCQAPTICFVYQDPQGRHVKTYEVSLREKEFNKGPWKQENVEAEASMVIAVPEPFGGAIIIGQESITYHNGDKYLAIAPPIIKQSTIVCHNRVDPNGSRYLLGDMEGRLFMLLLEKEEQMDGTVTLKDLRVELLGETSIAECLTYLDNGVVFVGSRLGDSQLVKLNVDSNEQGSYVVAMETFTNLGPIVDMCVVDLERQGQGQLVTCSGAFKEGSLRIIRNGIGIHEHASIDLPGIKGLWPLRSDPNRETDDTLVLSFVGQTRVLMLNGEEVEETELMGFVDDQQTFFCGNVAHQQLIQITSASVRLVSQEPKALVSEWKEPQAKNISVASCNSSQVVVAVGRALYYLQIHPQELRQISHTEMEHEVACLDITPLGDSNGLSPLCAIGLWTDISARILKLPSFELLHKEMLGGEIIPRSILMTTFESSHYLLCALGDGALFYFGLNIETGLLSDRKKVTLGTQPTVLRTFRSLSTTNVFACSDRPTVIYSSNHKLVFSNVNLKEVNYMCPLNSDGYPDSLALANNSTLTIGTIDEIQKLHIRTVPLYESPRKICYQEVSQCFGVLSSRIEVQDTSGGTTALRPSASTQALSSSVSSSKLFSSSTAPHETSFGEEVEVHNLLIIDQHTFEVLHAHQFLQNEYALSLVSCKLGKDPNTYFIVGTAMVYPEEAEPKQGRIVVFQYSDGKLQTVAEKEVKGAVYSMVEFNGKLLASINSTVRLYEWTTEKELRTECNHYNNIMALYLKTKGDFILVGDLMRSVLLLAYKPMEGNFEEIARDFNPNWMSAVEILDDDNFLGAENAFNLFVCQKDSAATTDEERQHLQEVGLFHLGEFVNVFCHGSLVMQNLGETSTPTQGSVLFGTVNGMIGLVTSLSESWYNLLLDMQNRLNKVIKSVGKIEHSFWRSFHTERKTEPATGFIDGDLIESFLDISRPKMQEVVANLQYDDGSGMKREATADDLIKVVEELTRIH

Row | SMILES | substrate protein remaining % (GSPT1) [1] | substrate protein remaining % (IKZF3) [2] | substrate protein remaining % (CK1a) [3] | substrate protein remaining % (IKZF2) [4] | substrate protein remaining % (WEE1) [5] | substrate protein remaining % (IKZF 1) [6] | Inhibition Rate at 0.5 µM (%) [7] | Inhibition Rate at 2 µM (%) [7] | IC50 ([7]; read-out: HTRF IC50, human Cereblon WT GST-tagged protein, 3 hours at room temperature) [nM]
1 | O=C1CCC(N2Cc3cc(C(=O)N4CCC(N5CCC(c6noc7cc(F)ccc67)CC5)C(F)(F)C4)cc(F)c3C2=O)C(=O)N1 (centres unmarked) | B (80%< substrate protein remaining %≤ 100%) | B (80%< substrate protein remaining %≤ 100%) | B (80%< substrate protein remaining %≤ 100%) | B (80%< substrate protein remaining %≤ 100%) | A (0% ≤ substrate protein remaining % ≤ 80%) | B (80%< substrate protein remaining %≤ 100%) | a5 (53% < a5 ≤ 60%) | a8 (80% < a8 ≤100%) | 
2 | O=C1CCC(N2Cc3ccc(C(=O)N4CCC(N5CC=C(c6cccc(Cl)c6Cl)CC5)C(F)(F)C4)cc3C2=O)C(=O)N1 (centres unmarked) | A (0% ≤ substrate protein remaining % ≤ 80%) | A (0% ≤ substrate protein remaining % ≤ 80%) | A (0% ≤ substrate protein remaining % ≤ 80%) | A (0% ≤ substrate protein remaining % ≤ 80%) | A (0% ≤ substrate protein remaining % ≤ 80%) | A (0% ≤ substrate protein remaining % ≤ 80%) | a3 (30% < a3 ≤ 40%) | a7 (70% < a7 ≤80%) | 
3 | O=C1CCC(N2Cc3cc(C(=O)N4CCC(N5CCN(c6noc7cc(F)ccc67)CC5)CC4)ccc3C2=O)C(=O)N1 (centres unmarked) | A (0% ≤ substrate protein remaining % ≤ 80%) | B (80%< substrate protein remaining %≤ 100%) | B (80%< substrate protein remaining %≤ 100%) | B (80%< substrate protein remaining %≤ 100%) | A (0% ≤ substrate protein remaining % ≤ 80%) | B (80%< substrate protein remaining %≤ 100%) | a3 (30% < a3 ≤ 40%) | a6 (60% < a6 ≤ 70%) | 
4 | O=C1CCC(N2Cc3cc(CN4CCC(N5CCN(C(c6ccccc6)c6ccccn6)CC5)C(F)(F)C4)ccc3C2=O)C(=O)N1 (centres unmarked) | A (0% ≤ substrate protein remaining % ≤ 80%) | A (0% ≤ substrate protein remaining % ≤ 80%) | B (80%< substrate protein remaining %≤ 100%) | A (0% ≤ substrate protein remaining % ≤ 80%) | A (0% ≤ substrate protein remaining % ≤ 80%) | A (0% ≤ substrate protein remaining % ≤ 80%) |  |  | 500 to 1000
5 | O=C1CCC(N2Cc3c(C(=O)N4CCC(N5CCN(C(c6ccccc6)c6ccccn6)CC5)C(F)(F)C4)cccc3C2=O)C(=O)N1 (centres unmarked) | A (0% ≤ substrate protein remaining % ≤ 80%) | A (0% ≤ substrate protein remaining % ≤ 80%) | B (80%< substrate protein remaining %≤ 100%) | A (0% ≤ substrate protein remaining % ≤ 80%) | A (0% ≤ substrate protein remaining % ≤ 80%) | A (0% ≤ substrate protein remaining % ≤ 80%) | a3 (30% < a3 ≤ 40%) | a6 (60% < a6 ≤ 70%) | 
6 | O=C1CCC(N2Cc3cc(C(=O)N4CCC(N5CCN(C(c6ccccc6)c6ccccc6)CC5)C(F)(F)C4)cc(F)c3C2=O)C(=O)N1 (centres unmarked) | A (0% ≤ substrate protein remaining % ≤ 80%) | B (80%< substrate protein remaining %≤ 100%) | B (80%< substrate protein remaining %≤ 100%) | B (80%< substrate protein remaining %≤ 100%) | A (0% ≤ substrate protein remaining % ≤ 80%) | A (0% ≤ substrate protein remaining % ≤ 80%) | a3 (30% < a3 ≤ 40%) | a7 (70% < a7 ≤80%) | 
7 | CC1(C)CCC(C(=O)N2CCN(C3CCN(C(=O)c4cccc5c4C(=O)N(C4CCC(=O)NC4=O)C5=O)CC3(F)F)CC2)=C(c2ccc(Cl)cc2)C1 (centres unmarked) | A (0% ≤ substrate protein remaining % ≤ 80%) | B (80%< substrate protein remaining %≤ 100%) | B (80%< substrate protein remaining %≤ 100%) | B (80%< substrate protein remaining %≤ 100%) | B (80%< substrate protein remaining %≤ 100%) | B (80%< substrate protein remaining %≤ 100%) | a2 (20% < a2 ≤ 30%) | a5 (53% < a5 ≤ 60%) | 
8 | O=C1CCC(N2Cc3cccc(CN4CCC(N5CCN(c6cccc(Cl)c6Cl)CC5)CC4)c3C2=O)C(=O)N1 (centres unmarked) | A (0% ≤ substrate protein remaining % ≤ 80%) | B (80%< substrate protein remaining %≤ 100%) | B (80%< substrate protein remaining %≤ 100%) | B (80%< substrate protein remaining %≤ 100%) | A (0% ≤ substrate protein remaining % ≤ 80%) | B (80%< substrate protein remaining %≤ 100%) | a3 (30% < a3 ≤ 40%) | a5 (53% < a5 ≤ 60%) | 
9 | O=C1CCC(N2Cc3cc(CCN4CCC(N5CC=C(c6cccc(Cl)c6Cl)CC5)C(F)(F)C4)ccc3C2=O)C(=O)N1 (centres unmarked) | A (0% ≤ substrate protein remaining % ≤ 80%) | B (80%< substrate protein remaining %≤ 100%) | B (80%< substrate protein remaining %≤ 100%) | B (80%< substrate protein remaining %≤ 100%) | B (80%< substrate protein remaining %≤ 100%) | B (80%< substrate protein remaining %≤ 100%) | a4 (40% < a4 ≤ 53%) | a8 (80% < a8 ≤100%) | 

Reference: patent EP4834897A1, “COMPOUNDS WITH TWO AZAHETEROCYCLES SUBSTITUTED ISOINDOLINONE SKELETON AND USES THEREOF” (dated 2026)
